Reference: PMC8305652, “Copper(II) Complexes Containing Natural Flavonoid Pomiferin Show Considerable In Vitro Cytotoxicity and Anti-inflammatory Effects” (International Journal of Molecular Sciences, 2021)

How the values were obtained:
osteosarcoma (HOS) = assay: in vitro cytotoxicity, MTT assay; assay type: cell-based, human; conditions: mean ± SD, at least three independent experiments
Procedure: The testing was performed on the following human cancer cell lines: breast adenocarcinoma (MCF-7), osteosarcoma (HOS), lung adenocarcinoma (A549), prostate adenocarcinoma (PC-3), ovarian carcinoma (A2780), cisplatin-resistant ovarian carcinoma (A2780R) and colorectal adenocarcinoma (Caco-2) obtained from ATCC collection of cell lines and cultivated according to producer’s instructions.

[1] = tested on: colorectal adenocarcinoma (Caco-2); assay: in vitro cytotoxicity, MTT assay; assay type: cell-based, human; conditions: mean ± SD, at least three independent experiments

Molecule	IC50 (osteosarcoma (HOS)) [nM]	IC50 [1] [nM]
CC(C)=CCc1c2c(c3occ(-c4ccc(O)c(O)c4)c(=O)c3c1[O-])C=CC(C)(C)O2.CO.O=[N+]([O-])[O-].[Cu+2].c1ccc(-c2ccnc3c2ccc2c(-c4ccccc4)ccnc23)cc1 [Complex 4, (3-(3,4-dihydroxyphenyl)-8,8-dimethyl-6-(3-methylbut-2-en-1-yl)-4H,8H-benzo[1,2-b:3,4-b′]dipyran-4-one-5-olato-κ^2O4:O5)(4,7-diphenyl-1,10-phenanthroline–κ^2N:N)copper(II) nitrate methanol solvate]	2600 ± 500	
(3-(3,4-dihydroxyphenyl)-8,8-dimethyl-6-(3-methylbut-2-en-1-yl)-4H,8H-benzo[1,2-b:3,4-b′]dipyran-4-one-5-olato-κ^2O4:O5)(dipyrido[3,2-a:2′,3′-c]phenazine–κ^2N4:N5)copper(II) nitrate methanol solvate [Complex 5]		2600 ± 1600
